# According to US20140193338A1, “COMPOUNDS FOR USE IN IMAGING, DIAGNOSING AND/OR TREATMENT OF DISEASES OF THE CENTRAL NERVOUS SYSTEM” (PIRAMAL IMAGING SA, priority 2011, published 2014):
# Amino acid sequences for entries named in this document (tags omitted).
# UniProt P27338, whole entry: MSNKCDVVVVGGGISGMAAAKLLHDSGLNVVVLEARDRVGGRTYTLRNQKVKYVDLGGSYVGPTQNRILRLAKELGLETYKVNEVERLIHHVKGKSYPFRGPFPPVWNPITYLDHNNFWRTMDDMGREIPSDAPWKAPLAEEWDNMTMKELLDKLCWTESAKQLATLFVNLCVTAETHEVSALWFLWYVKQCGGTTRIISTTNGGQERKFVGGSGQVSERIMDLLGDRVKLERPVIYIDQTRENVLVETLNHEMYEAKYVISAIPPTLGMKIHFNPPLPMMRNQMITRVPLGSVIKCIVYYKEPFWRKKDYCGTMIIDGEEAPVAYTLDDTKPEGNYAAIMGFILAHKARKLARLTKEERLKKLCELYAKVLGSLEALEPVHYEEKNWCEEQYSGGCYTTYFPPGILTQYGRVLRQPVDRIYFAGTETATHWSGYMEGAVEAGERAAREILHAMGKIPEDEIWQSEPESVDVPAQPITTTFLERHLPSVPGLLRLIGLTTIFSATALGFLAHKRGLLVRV
# Target: T1, MAO-B (Homo sapiens, UniProt P27338)
# T1 construct: Autoradiography using [^18F]rasagiline on human brain slices from a healthy subject; from tissue; host or cells: human brain hemisphere cryosections (100 µm)
# Experiment: Autoradiography with [^18F]rasagiline on human brain sections, blocking with excess inhibitor
# Format: binding
# Method: Binding of the [^18F]rasagiline (compound of formula F) was investigated on human brain sections from normal subjects using a standard protocol.
# In brief, whole brain hemispheres were cut at a 100 μm thickness in a Cryocut (Leica, Germany), thaw mounted onto gelatine glass slides and kept at −25° C. before use. Thereafter, the slides containing the regions of interest (e.g. hippocampus, thalamus) were removed and brought to room temperature. The sections were incubated with 0.2 MBq/mL [^18F] compound F in 50 mM TRIS/0.1% BSA (pH 7.4) with salts (120 mM NaCl, 5 mM KCl, 1 mM CaCl2, 1 mM MgCl2) for 90 min at room temperature and washed three times for 5 min each in 50 mM TRIS (pH 7.4). The sections were dipped once into ice cold distilled water, dried at room temperature and exposed to PhosphorImager plates (FUJI BAS 5000) overnight.
# For detection of the specificity of the signals an excess (10 μM) of deprenyl, rasagiline (both for MAO-B) and pirlindole (for MAO-A), respectively, was used together with the ^18F labelled rasagiline (compound F).
substance,measurement,value
deprenyl,blocking of the [^18F]rasagiline (compound F) autoradiography signal,completely blocked
